Test results from patent US20090137662A1, “SYNERGY OF DOPAMINE D2 AND ADENOSINE A2 RECEPTORS ACTIVATES PKA SIGNALING VIA BETA/GAMMA DIMERS” (The Regents of the University of California, priority 2002, published 2009).

What was measured:
[1] = system: PKA Cα; experiment: PKA Cα translocation in NG108-15/D2 cells (immunocytochemistry, cell fractionation/western); conditions: preincubation: spiperone 10 μM 30 min, PTX 50 ng/ml overnight, Rp-cAMPS 20 μM 1.5 hr, BW A1434U 10 μM 30 min, Ad5βARK1/Ad5QEHA/Ad5SKEE transfection; for effect on NPA-induced PKA Cα translocation: 50 nM NPA 10 min; for effect on ethanol-induced PKA Cα translocation: 100 mM ethanol 10 min
[2] = system: CRE-mediated gene expression; experiment: CRE-luciferase reporter assay in NG108-15/D2 cells; conditions: spiperone 10 μM, Rp-cAMPS 20 μM, BW A1434U 10 μM 30 min, PTX 50 ng/ml or QEHA overnight; for effect on NPA-dependent increases in luciferase activity / CRE-mediated gene expression: 50 nM NPA 10 min; for effect on ethanol-induced luciferase expression / CRE-mediated gene expression: 100 mM ethanol 10 min
[3] = system: PKA Cα; experiment: PKA Cα translocation in primary cultures of hippocampal neurons; conditions: spiperone 10 μM, BW A1434U 10 μM, DPCPX 100 nM, DMPX 10 μM 30 min, Rp-cAMPS 20 μM 1.5 hours, PTX 50 ng/ml or Ad5QEHA overnight

Row | Compound | effect on NPA-induced PKA Cα translocation [1] | effect on ethanol-induced PKA Cα translocation [1] | effect on NPA-dependent increases in luciferase activity / CRE-mediated gene expression [2] | effect on ethanol-induced luciferase expression / CRE-mediated gene expression [2] | effect on ethanol-induced PKA Cα translocation [3]
1 | O=C(CCCN1CCC2(CC1)C(=O)NCN2c1ccccc1)c1ccc(F)cc1 [spiperone] | blocked | no effect | blocks | no effect | no effect
2 | Nc1ncnc2c1ncn2[C@@H]1O[C@@H]2CO[P@@](O)(=S)O[C@H]2[C@H]1O [Rp-cAMPS] | blocks | blocks | blocked | blocked | prevent
3 | C#CCn1c(=O)c2c(ncn2C)n(C)c1=O [DMPX] | – | – | – | – | prevents
